Where two headings read alike, the source gives them in different places. Values belong to the molecule of their own block, whether it stands above or below them.
Key:
HepG2 hepatoma cell line = experiment: MTT cell viability assay, HepG2; type: cell-based; details: Homo sapiens, HepG2, 72 h, read-out: EC50 on cell viability, HepG2 (Liver)
Huh-7 hepatoma cell line = experiment: MTT cell viability assay, Huh-7; type: cell-based; details: Homo sapiens, Huh-7, 72 h, read-out: EC50 on cell viability, Huh-7 (Liver)
human sEH = human sEH (Homo sapiens (Human), UniProt P34913); experiment: Inhibitory activity against human sEH; type: biochemical

By UniProt entry, the sequences of proteins in these tests, tags left out.
UniProt P34913, whole entry: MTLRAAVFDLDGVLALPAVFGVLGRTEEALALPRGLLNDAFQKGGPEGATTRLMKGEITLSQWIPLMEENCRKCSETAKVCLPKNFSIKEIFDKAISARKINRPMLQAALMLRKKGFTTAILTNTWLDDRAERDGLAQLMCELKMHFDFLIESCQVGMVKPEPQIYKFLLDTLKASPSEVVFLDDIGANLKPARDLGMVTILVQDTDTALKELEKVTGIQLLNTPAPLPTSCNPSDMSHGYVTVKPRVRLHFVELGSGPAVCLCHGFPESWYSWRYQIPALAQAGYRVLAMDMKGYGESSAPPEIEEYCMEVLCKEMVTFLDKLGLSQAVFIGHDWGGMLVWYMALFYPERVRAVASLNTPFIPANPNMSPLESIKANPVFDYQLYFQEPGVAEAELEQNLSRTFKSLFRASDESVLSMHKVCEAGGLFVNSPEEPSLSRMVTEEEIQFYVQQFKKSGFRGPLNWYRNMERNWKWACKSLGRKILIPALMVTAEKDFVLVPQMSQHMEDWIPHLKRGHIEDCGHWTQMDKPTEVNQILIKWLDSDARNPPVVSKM

SMILES: O=C(NC12CC3CC(CC(C3)C1)C2)N[C@H]1CC[C@H](Oc2ccc(C(=O)O)cc2)CC1 [Compound 1471, reference compound]
EC50 (HepG2 hepatoma cell line): > 25000 nM
EC50 (Huh-7 hepatoma cell line): > 25000 nM

SMILES: CNC(=O)c1ccc(O[C@H]2CC[C@H](NC(=O)Nc3ccc(OC(F)(F)F)cc3)CC2)cc1 [Compound 2227, trans-N-Methyl-4-{4-[3-(4-trifluoromethoxy-phenyl)-ureido]-cyclohexyloxy}-benzamide]
IC50 (human sEH; read-out: Human sEH IC50): 0.5 nM

SMILES: CNC(=O)c1ccc(O[C@H]2CC[C@@H](NC(=O)Nc3ccc(OC(F)(F)F)cc3)CC2)cc1 [Compound 2228, cis-N-Methyl-4-{4-[3-(4-trifluoromethoxy-phenyl)-ureido]-cyclohexyloxy}-benzamide]
IC50 (human sEH): 0.5 nM

IC50 (human sEH; read-out: Human sEH IC50): 0.5 nM
SMILES: CC(C)(C)OC(=O)c1cc(O[C@H]2CC[C@@H](NC(=O)Nc3ccc(Cl)c(C(F)(F)F)c3)CC2)ccn1 [Compound 2318, cis-4-{4-[3-(4-Chloro-3-trifluoromethyl-phenyl)-ureido]-cyclohexyloxy}-pyridine-2-carboxylic acid tert-butyl ester]
